Assay results: patent publication US6395885B1, “Use of lithium salts of anionic dyes to enhance their light-fastness” (Avecia Limited, priority 1998, dated 2002)

Test: Aqueous solubility of the dyes
Format: physicochemical
Conditions: pH 9.5, 20° C.
Description: The weight % solubility of Dye (A), Dye (B) and the individual sodium and lithium salts of Dyes (A) and (B) in water at a pH of 9.5 and a temperature of 20° C. were measured.

In the case of `COc1cc(N=Nc2cccc(S(=O)(=O)O)c2)ccc1NC(=O)Nc1ccc(N=Nc2cccc(S(=O)(=O)O)c2)cc1OC` [Comparative (3), C.I. Direct Yellow 132], the “Solubility (wt % in water at pH 9.5)” value is reported as 11 wt %.
